# Assay results published in patent US20200323802A1, “SUPPORTING IMMUNOMODULATORY AGENT” (Flexopharm Brain GMBH & Go. KG, priority 2015, published 2020).
# System: Treg cells
# Assay: Treg cells in MS patients before and after 14 days of treatment with sodium propionate plus MS drug
# Format: in vivo, human
# Conditions: pooled comparison group, patient-specific dose of the MS drug together with sodium propionate 2×0.5 g daily, before vs after 14 days, FIG. 6
# Source text: The disproportionate increase in the amount of Treg cells signifies a corresponding reduction in the autoimmune response. Fumarates and short-chain fat carboxylates work together synergistically.
molecule,measurement,value
"interferon beta: established agent for the treatment of MS, given together with sodium propionate (protein, UniProt P01574 22-187, looked up) Interferon beta: MSYNLLGFLQRSSNFQCQKLLWQLNGRLEYCLKDRMNFDIPEEIKQLQQFQKEDAALTIYEMLQNIFAIFRQDSSSTGWNETIVENLLANVYHQINHLKTVLEEKLEKEDFTRGKLMSSLHLKRYYGRILHYLKAKEYSHCAWTIVRVEILRNFYFINRLTGYLRN",increase in number of Treg cells by a factor,1.1
